Assay results as given in patent US20070073039A1, “Peptides that inhibit viral infections” (priority 2005, published 2007).

System: JFH-1 virus
Assay: Interferon treatment of Huh-7.5.1 cells before JFH-1 infection
Assay type: cell-based, Hepatitis C virus (JFH-1)
Conditions: 5, 50 and 500 IU/mL; Huh-7.5.1, MOI 0.3; 3 days
Description: FIG. 8 graphically illustrates inhibition of HCV infection by interferons. […] The viral inoculum was removed 4 hours later and the cells were further cultured with interferon for 3 days. At that time cells were harvested, RNA was isolated and analyzed by real-time RT-PCR to determine the intracellular HCV RNA levels. Bars represent intracellular HCV RNA levels expressed as a % of the levels obtained in the control infections.
Interferon treatment. […] The inoculum was removed after 3 hours of incubation at 37° C., and fresh DMEM supplemented with the indicated doses of IFN was added to the cells. The efficiency of the infection was monitored 72 hours later by quantitative RT-PCR.

## IFNα-2a: human IFNα-2a (PBL Biomedical Lab, Piscataway, N.J.)
  Inhibition of HCV infection by interferons: efficiently inhibit HCV infection
